Screening data deposited in PubChem by National Center for Advancing Translational Sciences (NCATS).
TDP1 cell CPT: growth inhibition of DT40 Tdp1-/-;hTDP1 cells with camptothecin (screen for TDP1 inhibitors). chicken DT40 Tdp1-/-;hTDP1 cells + 20 nM CPT, ATP luminescence, 48 h. hit rate 12% among 420,000. Potency, µM (titrated, usually from 46.2 µM), for the others: top-dose activity change, negative = growth inhibition, actives largely listed as inhibitors; also: potency is read from the fitted curve at half-maximal effect; % is scaled to controls: 0 for no effect and ±100 for the full control effect; nearly all actives have a fitted effect of over 55% in size
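Chicken DT40 Tdp1-/- cells stably complemented with human TDP1 were seeded at 400 cells/well in medium containing 20 nM camptothecin, exposed to pin-transferred compounds, and grown at 37 °C for at least 48 hr. Viability was read as ATP luminescence.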
miR-21 reporter: miR-21 reporter, rising signal; Potency, µM (titrated, usually from 38.3 µM), without a hit: at the highest dose reporter change, positive = more light; AID 2288; 340,000 tested, under 10 active; HeLa miR-21 FLuc reporter, luciferase, 48 h; active = well fitted rising curve with a large enough effect; inconclusive = small, poorly fitted or top-dose-only effect; inactive = no such curve, though single readings can be large or run the other way;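 note: % of control where 0% means no effect; miR-21 action dims this reporter so a rising signal means less miR-21 action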
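Luminescence from a firefly luciferase reporter carrying a miR-21 binding site downstream, stably expressed under a CMV promoter in HeLa cells that make miR-21 endogenously, reports miRNA modulation after 48 h compound exposure up to approximately 40uM final.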
TDP1 cell noCPT: qHTS for Inhibitors of human tyrosyl-DNA phosphodiesterase 1 (TDP1): qHTS in cells in absence of CPT | AID 686978, 2013 | DT40 Tdp1-/- hTDP1 cells, no CPT, ATP luminescence, 48 h | Potency, µM (series often up to 46.2 µM), for inactives: at the top dose activity change, negative = growth inhibition, actives largely listed as inhibitors | hit rate 15% among 420,000; also: potency is read from the fitted curve at half-maximal effect; % is scaled to controls: 0 for no effect and ±100 for the full control effect; nearly all actives have a fitted effect of over 55% in size
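Chicken DT40 Tdp1-/- cells complemented with human TDP1, screened without camptothecin (DMSO vehicle only), 400 cells/well. Compounds pin-transferred, cells incubated at 37 °C for at least 48 hr. Growth read as ATP-dependent luminescence (CellTiter-Glo, 30 min at RT).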
TDP1 block: blocks human tyrosyl-DNA phosphodiesterase 1. AID 485290. recombinant TDP1, AlphaScreen DNA substrate cleavage. Potency, µM (highest dose often 130 µM), for the others: at the highest dose activity change, negative = inhibition, most hits filed as inhibitors. hit rate 0.28% among 350,000. Q9NUW8; also: potency is read from the fitted curve at half-maximal effect; % is scaled to controls: 0 for no effect and ±100 for the full control effect; nearly all actives have a fitted effect of over 40% in size
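AlphaScreen read-out: signal falls as enzyme removes the 3' tyrosine-FITC from a 5'-biotinylated DNA oligo (15 nM, 5 min, RT). Enzyme was E. coli-made recombinant Tdp1 at 1 nM, exposed to compound for 15 min beforehand; beads 10 ug/ml, 10 min.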
uPA surface inh: cell surface uPA generation inhibition; cell surface uPA generation assay, qHTS; Potency, µM (titrated, usually from 38.3 µM), for inactives: top-dose activity change, negative = inhibition, most hits filed as inhibitors; hit rate 0.31% among 330,000; active = well fitted inhibition curve with a large enough effect; inconclusive = small, poorly fitted or top-dose-only effect; inactive = no such curve, though single readings can be large or run the other way; tested in mouse RAW 264.7 cells; also: potency is read from the fitted curve at half-maximal effect; % is scaled to controls: 0 for no effect and ±100 for the full control effect; nearly all actives have a fitted effect of over 55% in size
Starred values were filed as active, the others as inactive; ? = inconclusive; · = no result given. Compounds with a hit are over-represented: about 16% of the library has one in this group of screens. Unless noted, calls follow the shape of the dose curve; as a rule, active = well fitted curve in the direction sought with a large enough effect; inconclusive = small, poorly fitted or top-dose-only effect, or another doubt; inactive = no such curve, though single readings can be large; an effect the other way counts as inactive or inconclusive.

Abbreviations: A = TDP1 cell CPT; B = miR-21 reporter; C = TDP1 cell noCPT; D = TDP1 block; E = uPA surface inh
COc1ccccc1-c1cn[nH]c1-c1ccc(OCc2ccccc2F)cc1O
  A = 18µM*	B = 4%	C = 15µM*	D = 6%	E = 4%

Oc1cc(OCc2ccccc2)ccc1-c1[nH]ncc1-c1ccccc1
  A = 10µM*	B = -1%	C = 12µM*	D = 6%	E = 1%

COc1ccc(-c2cn[nH]c2-c2ccc(OCc3ccc(F)cc3)cc2O)cc1OC
  A = 21µM*	B = ?	C = 23µM*	D = ·	E = 2%

O=[N+]([O-])c1ccc(COc2ccc(-c3[nH]ncc3-c3ccccc3)c(O)c2)cc1
  A = ?	B = 6%	C = ?	D = 7%	E = 2%

COc1ccc(-c2cn[nH]c2-c2ccc(OCc3ccccc3)cc2O)cc1OC
  A = 16µM*	B = ?	C = 18µM*	D = ·	E = -1%

CN(C)N1C(N)=C(C#N)C(c2cccc3ccccc23)C2=C1CC(c1ccccc1)CC2=O (stereo not given)
  A = 8.2µM*	B = 24%	C = 7.3µM*	D = 0%	E = -8%

Cc1ccc(-n2nc3c(=O)n(CC(=O)NCc4ccccn4)nc(C)c3c2C)cc1
  A = -9%	B = 0%	C = -25%	D = 3%	E = -11%

COc1ccc(Br)c(C(=O)Nc2cc3c(cc2N2CCCCC2)n(C)c(=O)c(=O)n3C)c1
  A = 23µM*	B = 1%	C = 8.2µM*	D = 5%	E = ·

COc1cccc(C(=O)Nc2cc3c(cc2N2CCCC2)n(C)c(=O)n3C)c1
  A = ?	B = -6%	C = ?	D = 5%	E = -2%

COc1ccc(Br)c(C(=O)Nc2cc3c(cc2N2CCOCC2)n(C)c(=O)n3C)c1
  A = 23µM*	B = -11%	C = ?	D = 0%	E = ·

Reformatted with two lines to a compound: part of the list above.
Values in the order: TDP1 cell CPT, miR-21 reporter, TDP1 cell noCPT, TDP1 block, uPA surface inh
> O=[N+]([O-])c1ccc(COc2ccc(-c3[nH]ncc3-c3ccccc3)c(O)c2)cc1
  ?, 6%, ?, 7%, 2%
> COc1ccc(-c2cn[nH]c2-c2ccc(OCc3ccccc3)cc2O)cc1OC
  16µM*, ?, 18µM*, ·, -1%
> CN(C)N1C(N)=C(C#N)C(c2cccc3ccccc23)C2=C1CC(c1ccccc1)CC2=O (stereo not given)
  8.2µM*, 24%, 7.3µM*, 0%, -8%
> Cc1ccc(-n2nc3c(=O)n(CC(=O)NCc4ccccn4)nc(C)c3c2C)cc1
  -9%, 0%, -25%, 3%, -11%

Remaining list, next part
Abbreviations: A = TDP1 cell CPT; B = miR-21 reporter; C = TDP1 cell noCPT; D = TDP1 block; E = uPA surface inh
COc1ccc(OC)c(S(=O)(=O)Nc2cc3c(cc2N2CCCC2)n(C)c(=O)c(=O)n3C)c1
  A = 21µM*	B = 0%	C = 23µM*	D = 5%	E = 1%

O=C(NCc1ccco1)C1CCCN1C(=O)Nc1ccc(Br)cc1 (stereo not given)
  A = -13%	B = 0%	C = -15%	D = 5%	E = -4%

COc1ccccc1C(=O)Nc1cccc(C(=O)c2ccccc2)c1
  A = ?	B = -13%	C = ?	D = 1%	E = -2%

Oc1ccc(Oc2ccc(Oc3ccc(O)cc3)cc2)cc1
  A = 5.8µM*	B = -20%	C = 4.1µM*	D = ·	E = ?

CCc1c(C)c(C#N)c2nc3ccccc3n2c1NCc1ccccn1
  A = ?	B = 0%	C = -25%	D = -1%	E = 6%

COC(=O)c1ccc(CSc2ccc3nnc(-c4cccc(F)c4)n3n2)o1
  A = -82%	B = -8%	C = 7.3µM*	D = 0%	E = -7%

CCOC(=O)CC(=O)CSc1ccc2nnc(-c3cccc(F)c3)n2n1
  A = -11%	B = -5%	C = -26%	D = 7%	E = ·

Cc1ccc(F)c(NC(=O)c2ccc(Cn3cc(Cl)cn3)cc2)c1
  A = -30%	B = -26%	C = -15%	D = 0%	E = ?

COCc1c(C(=O)OC)nnn1-c1ccc(C(F)(F)F)cc1[N+](=O)[O-]
  A = 18µM*	B = 0%	C = -10%	D = 6%	E = 1%

CCOC(=O)c1nnn(-c2ccc([N+](=O)[O-])cc2[N+](=O)[O-])c1C
  A = 12µM*	B = 15%	C = 12µM*	D = -4%	E = 8.9µM*

(cont.)
Abbreviations: A = TDP1 cell CPT; B = miR-21 reporter; C = TDP1 cell noCPT; D = TDP1 block; E = uPA surface inh
Cn1nccc1/C=C(/C#N)S(=O)(=O)c1ccccc1
  A = 23µM*	B = -8%	C = ?	D = 7%	E = 2%

Cc1ccccc1C1c2[nH]c3ccccc3c2CCN1CCCn1cccn1 (stereo not given)
  A = ?	B = 1%	C = 13µM*	D = ·	E = 1%

CCOc1cc(C(=S)N2CCOCC2)ccc1OS(=O)(=O)c1ccc(NC(C)=O)cc1
  A = 10µM*	B = 24%	C = 16µM*	D = 1%	E = -20%

COc1ccc(C=O)cc1OS(=O)(=O)c1ccc(NC(C)=O)cc1
  A = ?	B = 12%	C = 3.7µM*	D = 0%	E = 1%

COc1ccc(/C=N/NC(=O)c2ccc3ccccc3c2)cc1OS(=O)(=O)c1ccc(NC(C)=O)cc1
  A = 4.6µM*	B = 27%	C = 3.7µM*	D = 2%	E = ?

COc1cc(C=O)cc(OC)c1OS(=O)(=O)c1ccc(NC(C)=O)cc1
  A = ?	B = -4%	C = ?	D = 3%	E = ·

COc1ccccc1OS(=O)(=O)c1ccc(NC(C)=O)cc1
  A = 7%	B = -1%	C = -23%	D = 3%	E = 3%

CSc1nccn1C(=O)c1ccccc1[N+](=O)[O-]
  A = -20%	B = 0%	C = 2%	D = 5%	E = 11%

COc1cccc(C(=O)NCCSc2ccc(C)cc2)c1
  A = 3%	B = -17%	C = -21%	D = 3%	E = 1%

CCC(c1nnnn1-c1ccc2c(c1)OCCO2)N1CCN(CC)CC1 (stereo not given)
  A = 8%	B = ·	C = -22%	D = ·	E = ·

Following part.
Abbreviations: A = TDP1 cell CPT; B = miR-21 reporter; C = TDP1 cell noCPT; D = TDP1 block; E = uPA surface inh
FC(F)(F)Oc1ccccc1C(c1nnnn1-c1ccc2c(c1)OCCO2)N1CCN(C/C=C/c2ccccc2)CC1 (stereo not given)
  A = ?	B = ·	C = 15µM*	D = ·	E = ·

C(=C\c1ccccc1)/CN1CCN(C(c2cccc3ccccc23)c2nnnn2-c2ccc3c(c2)OCCO3)CC1 (stereo not given)
  A = 13µM*	B = ·	C = 8.2µM*	D = ·	E = ·

O=C(NCc1cccs1)C1C(=O)Nc2ccccc2C(=O)N1Cc1ccccc1 (stereo not given)
  A = 15%	B = ·	C = 20%	D = ·	E = ·

Cc1ccc2c(CN3CCN(C(=O)c4ccc(F)cc4)CC3)cc(=O)oc2c1
  A = 18µM*	B = -4%	C = -61%	D = 2%	E = ·

O=c1cc(CN2CCN(c3ccccc3F)CC2)c2cc3c(cc2o1)CCCC3
  A = ?	B = -11%	C = ?	D = 5%	E = ·

COc1ccccc1N1CCN(Cc2cc(=O)oc3cc(C)ccc23)CC1
  A = 23µM*	B = ·	C = ?	D = ·	E = ·

COc1ccc(CN2CCN(Cc3cc(=O)oc4cc(C)ccc34)CC2)c(OC)c1OC
  A = 26µM*	B = ?	C = 16µM*	D = 0%	E = -2%

Cc1ccc2c(CN3CCN(CCO)CC3)cc(=O)oc2c1
  A = -11%	B = -4%	C = 2%	D = 5%	E = 0%

O=c1cc(CN2CCN(c3ccccc3F)CC2)c2c(ccc3ccccc32)o1
  A = 16µM*	B = ·	C = 18µM*	D = ·	E = ·

COc1ccc(N2CCN(C(=O)c3cc4c(=O)n(Cc5cccnc5)ccc4nc3C)CC2)cc1
  A = -25%	B = -4%	C = -28%	D = 8%	E = ·

Following part.
Abbreviations: A = TDP1 cell CPT; B = miR-21 reporter; C = TDP1 cell noCPT; D = TDP1 block; E = uPA surface inh
Cc1cccn2c(=O)c(C=O)c(Cl)nc12
  A = 2.6µM*	B = 7%	C = 2.3µM*	D = 6%	E = -11%

Cc1cccn2c(=O)c(C=O)c(N3CCCCC3)nc12
  A = 0%	B = -15%	C = -23%	D = 5%	E = 0%

O=Cc1c(Cl)nc2ccccn2c1=O
  A = 18µM*	B = 2%	C = 16µM*	D = ·	E = -9%

CC1CCN(c2nc3ccccn3c(=O)c2C=O)CC1
  A = -13%	B = -21%	C = 0%	D = 1%	E = 12%

Cc1ccc(CNC(=O)CSc2c3c(nc4ccc(Cl)cc24)CCCC3)cc1
  A = ?	B = -2%	C = ?	D = -2%	E = ·

COC(=O)c1ccccc1NC(=O)CSc1c2c(nc3ccc(Cl)cc13)CCCC2
  A = ?	B = -7%	C = 12µM*	D = -2%	E = ·

CCCNC(=O)CSc1c2c(nc3ccc(Cl)cc13)CCCC2
  A = ?	B = 10%	C = ?	D = 0%	E = ·

Cc1ccc(C)c(NC(=O)CSc2c3c(nc4ccc(Cl)cc24)CCCC3)c1
  A = 21µM*	B = -5%	C = 21µM*	D = 0%	E = ·
